From patent publication US5906819 come the findings set out here.

This test has as its target intact myosin (chicken).

For F-actin (from UniProt P68135), the apparent Ka value for actin in the actin-activated MgATPase assay worked out at 0.56 µM.
